Assay: In vitro permeation of isosorbide dinitrate (ISDN) from creams through human stratum corneum
Conditions: control without enhancer

Which “Average Cumulative Amount of ISDN in Micrograms Permeating over 24 hours” value (0.7% ISDN cream, 24 hours (ISDN: 40% ISDN & 60% Lactose)) does the source give for O=[N+]([O-])O[C@H]1CO[C@H]2[C@@H]1OC[C@H]2O[N+](=O)[O-] here?
The value was 442.5 ± 27.7 Micrograms.

What about the “Average Cumulative Amount of ISDN in Micrograms Permeating over 48 Hours” value (0.7% ISDN cream, 48 hours) of the same compound?
Its value is 535.0 ± 25.0 Micrograms.

What about the “Average Cumulative Amount of ISDN in Micrograms Permeating over 51 Hours” value (1% ISDN cream, 51 hours) of the same compound?
Its value is 678.5 ± 84.0 Micrograms.

— patent US5030629A, “Compositions and method comprising heterocyclic compounds containing two heteroatoms as membrane penetration enhancers” (priority 1989, dated 1991)
